These results are taken from US20230190933A1, “Immunologically Active Peptide-Biliverdin Conjugate, Preparation Method Therefor and Application Thereof” (priority 2020, published 2023).

Series [1] relates to locally recurrent head and neck cancer. The settings on record: cited from earlier work.
Series [2] has as its system dendritic cells from peripheral blood of non-small cell lung cancer model mice. Particulars: coculture 24 hours; CD80, CD83, CD86.

In the case of “Antibody-Drug Conjugates (ADC) composed of cetuximab and IRDye700DX”, in series [1] (clinical trials), the complete remission rate is on record as 16.7%, the disease control rate was 86.7% and the remission rate is listed as 50%. Also, the biological safety result in series [1] (in vivo) is on record as “good biological safety”.

In the case of “biliverdin-KIFGSLAFL conjugate [Example 5]”, the “promoting effect on the maturation of dendritic cells” value in series [2] was “can promote the maturation of dendritic cells”.
